Here are results for two compounds from patent US20230146829A1 (priority 2020, published 2023).

Amino acid sequences for entries named in this document (tags omitted).
UniProt P10275, whole entry T878A: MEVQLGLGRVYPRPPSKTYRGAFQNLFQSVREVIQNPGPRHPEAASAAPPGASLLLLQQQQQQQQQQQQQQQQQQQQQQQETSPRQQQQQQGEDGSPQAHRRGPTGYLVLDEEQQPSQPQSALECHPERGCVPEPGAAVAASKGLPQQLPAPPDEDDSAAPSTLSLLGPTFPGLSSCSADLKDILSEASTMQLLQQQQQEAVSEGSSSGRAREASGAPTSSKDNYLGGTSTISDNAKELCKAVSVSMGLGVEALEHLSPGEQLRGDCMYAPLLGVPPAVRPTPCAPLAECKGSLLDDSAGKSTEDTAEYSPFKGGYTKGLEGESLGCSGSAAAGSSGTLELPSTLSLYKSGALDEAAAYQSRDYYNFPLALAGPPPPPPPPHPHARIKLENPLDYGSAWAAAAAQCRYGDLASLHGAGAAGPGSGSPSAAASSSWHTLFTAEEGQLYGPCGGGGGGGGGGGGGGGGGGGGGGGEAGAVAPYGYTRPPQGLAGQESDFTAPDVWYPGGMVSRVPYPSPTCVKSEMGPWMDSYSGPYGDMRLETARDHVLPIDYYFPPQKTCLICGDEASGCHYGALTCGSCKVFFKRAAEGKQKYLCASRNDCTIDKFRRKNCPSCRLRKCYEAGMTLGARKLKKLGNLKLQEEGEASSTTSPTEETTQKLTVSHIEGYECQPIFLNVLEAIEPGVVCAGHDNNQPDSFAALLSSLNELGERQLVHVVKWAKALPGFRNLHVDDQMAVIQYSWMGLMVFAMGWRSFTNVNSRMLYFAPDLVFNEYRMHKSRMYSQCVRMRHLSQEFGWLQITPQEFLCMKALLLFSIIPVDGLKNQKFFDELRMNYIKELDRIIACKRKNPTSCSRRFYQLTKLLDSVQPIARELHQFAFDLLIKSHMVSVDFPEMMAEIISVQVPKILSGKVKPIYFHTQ

Assay [1] concerns the target AR wildtype (wt) (Homo sapiens, UniProt P10275).
Assay [2] deals with AR full length (AR FL) in LNCaP cells (Homo sapiens, UniProt P10275, T878A).

As for `CC(C)(C)OC(=O)NCc1cnn(C[C@](C)(O)C(=O)Nc2cnc(C#N)c(C(F)(F)F)c2)c1` [Compound 1079, (S)-tert-Butyl ((1-(3-((6-cyano-5-(trifluoromethyl)pyridin-3-yl)amino)-2-hydroxy-2-methyl-3-oxopropyl)-1H-pyrazol-4-yl)methyl)carbamate], the “Wt. IC50” value in assay [1] is listed as “No effect”. On to `C[C@](O)(Cn1ccc2cc(F)ccc21)C(=O)Nc1cnc(C#N)c(C(F)(F)F)c1` [Compound 47], for which, in assay [2], the “SARD Activity Full Length % degradation at 1 μM” value was 57, 97% and the “SARD Activity Full Length % degradation at 10 μM” value is reported as 57, 97%.
